These results are taken from ChEMBL document CHEMBL1149338, “Synthesis and in vitro evaluation of salvinorin A analogues: effect of configuration at C(2) and substitution at C(18)” (Bioorg Med Chem Lett, 2006).

By UniProt entry, the sequences of proteins in these tests, tags left out. Where a name states a change or a piece, a line headed by the entry shows the natural chain unless it says otherwise.
UniProt P41145: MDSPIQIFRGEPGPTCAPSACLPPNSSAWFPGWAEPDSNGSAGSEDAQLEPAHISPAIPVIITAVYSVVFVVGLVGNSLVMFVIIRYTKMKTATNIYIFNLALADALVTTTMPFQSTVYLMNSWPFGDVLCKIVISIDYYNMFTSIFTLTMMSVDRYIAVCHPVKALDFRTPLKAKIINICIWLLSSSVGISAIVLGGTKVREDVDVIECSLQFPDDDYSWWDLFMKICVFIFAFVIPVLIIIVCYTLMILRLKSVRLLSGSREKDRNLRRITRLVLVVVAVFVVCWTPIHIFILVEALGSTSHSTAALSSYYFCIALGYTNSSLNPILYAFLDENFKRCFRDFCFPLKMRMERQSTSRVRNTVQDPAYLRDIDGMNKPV

Where only a bound is given, the exact number is not on record here.

The target in experiment [1] is T1, Kappa-type opioid receptor (Homo sapiens, UniProt P41145). Kind of experiment: Enhancement of [35S]GTP-gamma-S binding to human KOR expressed in CHO cells relative to U50,488H. Format: functional, cell-based. For orientation: GTPγS resists hydrolysis and so accumulates on activated G proteins.
Experiment [2] addresses T1, Kappa-type opioid receptor. Kind of experiment: Inhibition of [3H]diprenorphine binding to human KOR expressed in CHO cells. Format: cell-based. The gist of the method:
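Affinity: membranes from CHO cells stably transfected with human κ-opioid receptor; competitive inhibition of [3H]diprenorphine binding; Ki values; mean of at least three independent experiments, each in duplicate.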

Experiment [3] concerns the target T1, Kappa-type opioid receptor. The experiment is described as follows: Enhancement of [35S]GTP-gamma-S binding to human KOR expressed in CHO cells. It counts as functional, cell-based.

On to `COC(=O)[C@@H]1C[C@H](NC(C)=O)C(=O)[C@H]2[C@@]1(C)CC[C@H]1C(=O)O[C@H](c3ccoc3)C[C@]21C`, for which, in experiment [1], the Efficacy was 106%.
Turning to `CCN[C@H]1C[C@@H](C(=O)OC)[C@]2(C)CC[C@H]3C(=O)O[C@H](c4ccoc4)C[C@]3(C)[C@H]2C1=O`, the Efficacy in experiment [1] came out at 104%.
One may read the Ki as a dissociation constant, usually derived from enzyme kinetics or from competition with a known ligand. A word on the EC50: it is the concentration giving half of the maximal effect. Take `COC(=O)[C@@H]1C[C@@H](N(C)C(C)=O)C(=O)[C@H]2[C@@]1(C)CC[C@H]1C(=O)O[C@H](c3ccoc3)C[C@]21C`: the Ki in experiment [2] came to 0.0165 µM. Also, the EC50 in experiment [3] is 0.021 µM.
For `COC(=O)[C@@H]1C[C@H](NC(C)C)C(=O)[C@H]2[C@@]1(C)CC[C@H]1C(=O)O[C@H](c3ccoc3)C[C@]21C`, in experiment [1], the Efficacy is 99%.
On the same count and under the same terms, in the case of `COC(=O)[C@@H]1C[C@@H](NC(C)C)C(=O)[C@H]2[C@@]1(C)CC[C@H]1C(=O)O[C@H](c3ccoc3)C[C@]21C` it was 107%.
In experiment [2], `COC(=O)[C@@H]1C[C@@H](O)C(=O)[C@H]2[C@@]1(C)CC[C@H]1C(=O)O[C@H](c3ccoc3)C[C@]21C` showed a Ki above 10 µM.
`COC(=O)[C@@H]1C[C@@H](NC(C)=O)C(=O)[C@H]2[C@@]1(C)CC[C@H]1C(=O)O[C@H](c3ccoc3)C[C@]21C`: in experiment [1], the Efficacy was 103%.
